Values of other authors, collected in patent publication US20090062206A1, “Urodilatin Cancer Treatment” (UNIVERSITY OF SOUTH FLORIDA, priority 2006, published 2009).

Conditions: human, in vivo; cited from earlier work

Urodilatin
side effect hypotension: observed
